PubChem BioAssay (Tox21)
Several values for one entry are separate records, joined by “and”; a condition that tells them apart may be missing. Identical values can stand only once. The list shows a part of the results, in another mix than the full data. Records with an inconclusive call do not appear. Activity calls are given as the source filed them. Calls follow the shape of the full dose curve.

assay: qHTS assay to identify small molecule agonists of the AP-1 signaling pathway - cell viability counter screen (AID 1159525); details: ME-180 AP-1-bla cells viability, ATP luminescence, 5 h; at 35.3 µM (top of the series); also: nearly all actives have a fitted effect of over 55% in size
Source text: National Center for Advancing Translational Sciences [NCATS]
NIH Chemical Genomics Center [NCGC]
U.S. Environmental Protection Agency [EPA]
National Institutes of Environmental Health Sciences [NIEHS]
National Toxicology Program [NTP]
U.S. Food and Drug Administration [FDA]
Activator protein-1 (AP-1), a transcription factor, plays an important role in tumor genesis by regulating genes involved in cell proliferation, differentiation, apoptosis, and angiogenesis. AP-1 activity is induced by a complex network of signaling pathways that involves extracellular signals, such as growth factors. The AP-1 protein complex formed from c-Fos and c-Jun binding to the AP-1 response element results in transcriptional activation of genes containing such elements within their promoter.
Low molecular weight molecules have been discovered and developed to modulate various components of these signaling pathways, for example, MAP kinase inhibitors. However, many points of pathway modulation remain untested due to the lack of chemical probes making this signaling locus of general interest.
Using a beta-lactamase reporter-gene under control of the AP-1 response element, a cell-based assay [CellSensor(TM) AP-1-bla ME-180 developed by Invitrogen Corp.] was used to measure EGF-induced signaling. The Tox21 10K library compounds were measured for their ability to positively modulate the action of EC50 EGF on reporter gene activity. Compounds were screened in a 15-pt titration series in 1536-well format. The cytotoxicity of the Tox21 compound library against this cell line was tested in parallel by measuring the intra cellular ATP content in the same wells.
Tox21 Assay Protocol Summary:
2500 cells/5uL in Opti-MEM medium containing 0.5% dialyzed FBS, 0.1 mM NEAA, 1 mM sodium pyruvate and 10 mM HEPES was dispensed into 1536-well black wall/clear bottom plates using a Multidrop dispenser and cells were cultured at 37 degrees Celsius overnight. Next day 23 nL of compounds dissolved in DMSO, positive controls or DMSO were delivered to each well using a pin tool. The plates were incubated at 37 degrees Celsius for 5 hours. 1 uL of LiveBLAzerTM B/G FRET substrate (Solution A+B+C+D) was added to each well using a Flying Reagent Dispenser. After incubated at room temperature for 2.5 hours the plates were measured on an EnVision plate reader at Excitation 405nm, Emission1=460nm and Emission 2=530nm. The %Activity was determined from the ratio of 460nm/530nm.
After the plates were read for Beta-Lactamase assay on Envision; 3 ul Cell Titer Glo (Promega) was added to measure the cytotoxicity and the plates were then incubated at RT in dark for 30 min. The luminescence was read on ViewLux (Perkin Elmer, Shelton, CT) using 6 sec exposure. ViewLux data was expressed as relative luminescence units.
For primary data analysis, raw plate reads for each titration point were first normalized relative to […] EGF control (100%) and DMSO only wells (basal, 0%).
For primary data analysis for viability assay, raw plate reads for each titration point were first normalized Tetra n-octyl ammonium bromide control (-100%) and DMSO (control, 100%).

Structure (SMILES)	viability change, negative = cytotoxic
OCCSCCO	inactive: 0.149%

same assay, conditions: ME-180 AP-1-bla cells viability, ATP luminescence, 5 h; at 76.8 µM (top of the series)

Structure (SMILES)	viability change, negative = cytotoxic
OCCSCCO	inactive: 4.58%

same assay, conditions: ME-180 (cervical carcinoma) AP-1-bla cells viability, ATP luminescence, 5 h; at 76.8 µM (top of the series) unless noted

Structure (SMILES)	viability change, negative = cytotoxic
O=[N+]([O-])OCC(CO[N+](=O)[O-])(CO[N+](=O)[O-])CO[N+](=O)[O-]	inactive: 1.76%
C/C1=C2N=C(/C=C3N=C(/C(C)=C4\[N-][C@@](C)([C@@H]5N=C1[C@](C)(CCC(=O)NC[C@@H](C)OP(=O)([O-])O[C@H]1[C@@H](O)[C@@H](n6cnc7cc(C)c(C)cc76)O[C@@H]1CO)[C@H]5CC(N)=O)[C@@](C)(CC(N)=O)[C@@H]4CCC(N)=O)[C@@](C)(CC(N)=O)[C@@H]\3CCC(N)=O)C(C)(C)[C@@H]/2CCC(N)=O.[C-]#N.[Co+3]	inactive: 1.75% [at 35.3 µM]
CC(C)N(CCO)C(C)C	inactive: -10%
CCN(CC)CCCl	inactive: 10.2%
N=C(N)N[N+](=O)[O-]	inactive: -5.23%
Nc1cc([N+](=O)[O-])cc([N+](=O)[O-])c1O	inactive: 0.792%
N#CBr	inactive: 1.88%
Cc1ccc([N+](=O)[O-])cc1[N+](=O)[O-]	inactive: 4.93% and inactive: 16.2%
O=[N+]([O-])c1cccc([N+](=O)[O-])c1	inactive: 1.01%
CC(C)OP(C)(=O)OC(C)C	inactive: 7.97% and inactive: 4.62%
CN(C)CCCl	inactive: 3.4%
Cc1cccc([N+](=O)[O-])c1[N+](=O)[O-]	inactive: 1.23% [at 35.3 µM]
O=[N+]([O-])[O-].[NH4+]	inactive: -0.632% and inactive: 22.7%
COP(C)(=O)OC	inactive: 1.02% and inactive: -12.7%
CCOP(=O)(CC)OCC	inactive: 16.3%
COc1ccc([N+](=O)[O-])cc1[N+](=O)[O-]	inactive: 1.11%
CCOP(=O)(CC)Oc1ccc([N+](=O)[O-])cc1 (configuration not stated)	inactive: 1.97% [at 35.3 µM]
Cc1c([N+](=O)[O-])cccc1[N+](=O)[O-]	inactive: -4.88% and inactive: 4.66%
[NH4+].[O-][Cl+3]([O-])([O-])[O-]	inactive: -1.37% and inactive: -4.74%
CP(=O)(O)OCCC[Si](O)(O)O	inactive: 17.2%
